This note sets out measurements from ChEMBL document CHEMBL5653609, “Ack1-mediated androgen receptor phosphorylation modulates radiation resistance in castration-resistant prostate cancer” (J Biol Chem, 2012).

The chains behind the UniProt entries cited, without tags or fusion partners. Where a name states a change or a piece, a line headed by the entry shows the natural chain unless it says otherwise.
UniProt P42338: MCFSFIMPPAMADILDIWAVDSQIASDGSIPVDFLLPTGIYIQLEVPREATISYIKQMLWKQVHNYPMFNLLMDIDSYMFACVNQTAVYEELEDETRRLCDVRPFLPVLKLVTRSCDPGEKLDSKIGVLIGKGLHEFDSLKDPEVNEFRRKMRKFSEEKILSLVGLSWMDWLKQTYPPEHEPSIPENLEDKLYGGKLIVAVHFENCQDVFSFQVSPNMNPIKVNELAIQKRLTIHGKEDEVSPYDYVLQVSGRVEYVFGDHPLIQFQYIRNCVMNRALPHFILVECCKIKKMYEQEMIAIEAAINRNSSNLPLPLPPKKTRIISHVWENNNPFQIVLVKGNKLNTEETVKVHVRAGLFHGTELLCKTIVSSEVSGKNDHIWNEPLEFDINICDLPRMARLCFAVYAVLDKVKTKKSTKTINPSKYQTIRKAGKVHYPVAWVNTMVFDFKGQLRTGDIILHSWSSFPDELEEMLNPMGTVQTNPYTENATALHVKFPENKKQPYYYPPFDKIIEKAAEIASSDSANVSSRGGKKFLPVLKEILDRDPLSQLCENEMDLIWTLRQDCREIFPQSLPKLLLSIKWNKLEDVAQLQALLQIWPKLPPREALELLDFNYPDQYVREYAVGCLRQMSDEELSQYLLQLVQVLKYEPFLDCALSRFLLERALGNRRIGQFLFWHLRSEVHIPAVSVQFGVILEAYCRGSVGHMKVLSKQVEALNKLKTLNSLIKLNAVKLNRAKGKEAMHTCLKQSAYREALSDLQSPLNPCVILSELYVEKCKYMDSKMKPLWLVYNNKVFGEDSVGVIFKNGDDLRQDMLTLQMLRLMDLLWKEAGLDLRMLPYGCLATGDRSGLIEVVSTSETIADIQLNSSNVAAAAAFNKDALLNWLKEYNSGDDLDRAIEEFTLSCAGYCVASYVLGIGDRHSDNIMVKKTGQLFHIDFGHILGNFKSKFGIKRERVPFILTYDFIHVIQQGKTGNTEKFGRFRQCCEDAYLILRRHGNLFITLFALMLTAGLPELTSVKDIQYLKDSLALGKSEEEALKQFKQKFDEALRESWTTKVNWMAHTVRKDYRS

The target of this assay is Phosphatidylinositol 4,5-bisphosphate 3-kinase catalytic subunit beta isoform (Homo sapiens, UniProt P42338). Briefly: Inhibition of PI3Kbeta (unknown origin) in the presence of [33P]ATP by kinase hotspot assay.

For orientation: IC50 means the concentration that gives 50% inhibition.

For `O=c1cc(N2CCOCC2)oc2c(-c3ccccc3)cccc12` [LY-294002], the IC50 is 363 nM.
